US20140349922A1 (priority 2011, published 2014)

Experiments:
[1] = Pharmacokinetic profile of OXM, PEG10-Fmoc-OXM and PEG20-Fmoc-OXM after single SC injection in rats; format: in vivo, male Wistar rats; details: […] peptide content
[2] = Pharmacokinetic study of OXM and PEG40-Fmoc-OXM after single IV or SC dose in rats; format: in vivo, male Wistar rats

## Oxyntomodulin [OXM]
[1]
  T 1/2 term.: 9 min
[2]; IV
  F % (bioavailability): 100%
  MRT: 24.8 min
  T 1/2 term.: 26.4 min
[2]; SC
  F % (bioavailability): 4.37%
  MRT: 54.8 min
  T 1/2 term.: 41.4 min
